{"source": "patent US10029000B2", "about": "“Uses of IL-12 in hematopoiesis” (University of Southern California, priority 2003, dated 2018)", "system": "lethally irradiated mice", "experiment": "Radioprotection assay: survival of mice after total body lethal irradiation", "assay_type": "in vivo, mice (C57BL/6J)", "settings": "cytokine given 1 hour post lethal dose radiation", "method": "A study was conducted to assess the ability of IL-112 administration to protect, or rescue, a mammal from lethal ionizing radiation and the results are presented in FIG. 1. Mice received recombinant murine IL-12 (100 ng/mouse (which is about 5 ug/kg on average), intravenous injection) before (24 hours) or after (1 hour) lethal dose radiation (1000 rad). Mice in control group received equal volume of PBS buffer. Survival rate were analyzed by Kaplan-Meier method and p value was calculated using Log Rank Test.\nA study was conducted to assess a low dose IL-12 can effectively protect a mammal from lethal dose ionizing radiation. To determine the minimum effective radioprotective dose of IL-12, different dose of IL-112 were administered to lethally irradiated animals before (24 hours before) or post (within one hour) lethal dose ionizing radiation. The best survival rate was obtained at dose of 5 ug/kg, in both before and post radiation administration. […] The dose of 5 ug/Kg can be converted to approximately 400 ng/kg as the appropriate human dose, using the general rule where the human dose is 1/12 of the murine dose.\nIL-12 was administrated to mice at different doses 24 hours before radiation to determine if there is a dose dependent relationship between the concentration of IL-12 administration and survival from lethal irradiation. […]", "data": [{"substance": "IL-2: cytokine which can synergistically function with IL-12 in immune response", "values": [{"measurement": "Survival rate (%)", "value": 0, "unit": "%"}, {"measurement": "Survives", "setting": "4-5 mice per group", "value": 0}]}]}
